Assay outcomes (PubChem)
miR-21 reporter: raises the signal of a miR-21 reporter. HeLa miR-21 FLuc reporter, luciferase, 48 h. 340,000 tested, under 10 active. Potency, µM (highest dose often 38.3 µM), for the others: at the highest dose reporter change, positive = more light; active = well fitted rising curve with a large enough effect; inconclusive = small, poorly fitted or top-dose-only effect; inactive = no such curve, though single readings can be large or run the other way;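 note: % of control where 0% means no effect; miR-21 action dims this reporter so a rising signal means less miR-21 action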
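Luminescence from a firefly luciferase reporter carrying a miR-21 binding site downstream, stably expressed under a CMV promoter in HeLa cells that make miR-21 endogenously, reports miRNA modulation after 48 h compound exposure up to approximately 40uM final.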
PTHR1 agonist: activates the human parathyroid hormone receptor PTHR1; Q03431; HEK293 GP2 PTHR1 cells, GloSensor cAMP luminescence, 1 h; Potency, µM (series often up to 115 µM), for the others: at the highest dose activation, most hits filed as activators; 410,000 tested, 0.075% active; AID 743266; further: potency means the concentration at half of the fitted maximal effect; nearly all actives have a fitted effect of over 55% in size
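HEK-293-derived GP2 cells expressing PTHR1 and a GloSensor cAMP reporter, 3,000/well, plated overnight, given luciferin plus IBMX (each 0.5 mM as added) for 1 h at 37 °C, then compound for 1 h at 37 °C. Luminescence was read after 15 min at room temperature.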
GLS inhibitor: blocks human kidney-isoform glutaminase activity; Potency, µM (doses to about 45.5 µM), for inactives: at the highest dose activity change, negative = inhibition, most hits filed as inhibitors; 410,000 tested, 0.21% active; GLS enzymatic activity, qHTS titration; AID 624170; O94925; further: potency means the concentration at half of the fitted maximal effect; on the % scale 0 is the no-effect control and ±100 the full control effect
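Glutamate formation by hKGA was monitored fluorometrically using coupled glutamate oxidase, HRP and Amplex Red. Substrate was added as 1 mM L-glutamine solution; incubation was 30 min at RT after an initial read.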
USP2a inh: inhibitors of human ubiquitin-specific protease USP2a. O75604. USP2 core, Ub-CHOP2 coupled fluorogenic reporter, 485/531. Potency, µM (titrated, usually from 38.3 µM), for inactives: at the highest dose activity change, negative = inhibition, hits mostly inhibitors. 330,000 tested, 0.01% active;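 further: potency means the concentration at half of the fitted maximal effect; plate controls were DMSO wells for no effect and full inhibition by NEM control for full effect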
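Cell-free coupled assay: 10nM USP2 core preincubated 30min RT with compound in Tris-HCl pH 8.0/CaCl2/CHAPS buffer, then 25nM Ub-CHOP2 and 25nM reporter substrate; fluorescence (Ex 485/Em 531) read after 60min RT, normalized to NEM inhibition, concentration-response curves fitted.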
Eya2 phos inh: Eya2 (human) phosphatase inhibition. Potency, µM (titrated, usually from 76.9 µM), for inactives: at the top dose activity, negative = inhibition, actives largely listed as inhibitors. O00167. 330,000 tested, 0.006% active. recombinant Eya2, OMFP fluorescence dephosphorylation (OMFP is methylfluorescein phosphate); further: potency means the concentration at half of the fitted maximal effect; on the % scale 0 is the no-effect control and ±100 the full control effect
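Eya2 (0.2 uM) preincubated 10 min at ambient with compound, then OMFP substrate added at 50 uM; 10 min reaction in 50 mM HEPES pH 7.5, 50 mM NaCl, 5 uM MgCl2, 0.05% BSA, 1 mM DTT. Fluorescence read at Ex 485/Em 525 nm.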
TSG101-PTAP inh: blocks PTAP/TSG101 interaction to inhibit HIV-1 budding; Q99816; Fluorescence polarization, FITC-PTAP peptide / Tsg101 binding; Potency, µM (series often up to 115 µM), without a hit: at the top dose activity change, negative = inhibition, hits mostly inhibitors; 340,000 tested, under 10 active; AID 493005; active means well fitted inhibition curve with a large enough effect in the main read-out, with a control signal flat, not every such curve was filed as active; inconclusive means small, poorly fitted or top-dose-only effect, or effect the other way, or a change in a side signal; inactive means no such curve, though single readings can be large or run the other way; further: potency means the concentration at half of the fitted maximal effect; % of control where 0% means no effect
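Compounds were pin-transferred onto Tsg101 binding domain (10 uM final) in HEPES pH 7.5 buffer, then FITC-PTAP peptide was added at 50 nM final. After 20 min at RT, polarization reported peptide displacement across a qHTS concentration series.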
Starred values were filed as active, the others as inactive; ! = a repeat was not active; [ ] = remark or other dose. An excerpt weighted towards active compounds, which were near 0.24% of everything screened. Unless noted, the call rests on the fitted dose curve; in most records, active means well fitted curve in the direction sought with a large enough effect; inconclusive means small, poorly fitted or top-dose-only effect, or another doubt; inactive means no such curve, though single readings can be large; an effect the other way counts as inactive or inconclusive.

What do the screens show for `O=C(O)c1ccc(COc2ccc3c4c(c(=O)oc3c2)CCC4)o1`?
miR-21 reporter: -9%; PTHR1 agonist: inconclusive; GLS inhibitor: 13µM*; USP2a inh: 1%; Eya2 phos inh: 20%; TSG101-PTAP inh: -5%

How did O=c1oc2cc(OCc3ccc([N+](=O)[O-])cc3)ccc2c2c1CCCC2 do in these assays?
miR-21 reporter: -16%; PTHR1 agonist: -21%[57.5 µM]; GLS inhibitor: 2%; USP2a inh: -1%; Eya2 phos inh: 21%; TSG101-PTAP inh: -2%

How did O=C(COC(=O)c1cc(NS(=O)(=O)c2cccs2)ccc1O)Nc1cc(Cl)ccc1Cl do in these assays?
miR-21 reporter: -4%; PTHR1 agonist: -19%; GLS inhibitor: 9%; USP2a inh: 3%; Eya2 phos inh: 0%; TSG101-PTAP inh: -2%

Results for O=C(COC(=O)c1cc(NS(=O)(=O)c2cccs2)ccc1O)Nc1ccc(F)c(F)c1F ?
miR-21 reporter: 9%; PTHR1 agonist: -50%; GLS inhibitor: 13µM*; USP2a inh: -1%; Eya2 phos inh: 9%; TSG101-PTAP inh: -1%

How did Cc1c(/C=C2\NC(=O)NC2=O)c2ccccc2n1C do in these assays?
miR-21 reporter: -15%; PTHR1 agonist: inactive; GLS inhibitor: 13µM*; USP2a inh: 0%; Eya2 phos inh: -1%; TSG101-PTAP inh: 0%

Results for Cc1cccc(C)c1-n1c(C)cc(/C=C2\NC(=O)NC2=O)c1C ?
miR-21 reporter: -13%; PTHR1 agonist: -22%; GLS inhibitor: -1%; USP2a inh: 1%; Eya2 phos inh: -10%; TSG101-PTAP inh: -1%

Results for Cc1c2cnn(CC(=O)N3CCCCC3)c(=O)c2c(C)n1Cc1ccc(Cl)cc1 ?
miR-21 reporter: -8%; PTHR1 agonist: inactive; GLS inhibitor: -3%

How did Oc1ccc(OCc2ccccc2)cc1 do in these assays?
GLS inhibitor: 15%[20 µM]

Results for Oc1ccc(NCc2ccc(OCc3ccccc3)cc2)cc1 ?
miR-21 reporter: -19%; PTHR1 agonist: inconclusive; GLS inhibitor: 11µM*!; USP2a inh: -1%; Eya2 phos inh: 9%; TSG101-PTAP inh: -6%

Results for C[C@H]1NCc2cc(-c3ccc4c(=O)c(C(=O)O)cn(C5CC5)c4c3OC(F)F)ccc21 ?
GLS inhibitor: 13µM*

How did COc1ccc(OC)c(NC(=O)c2nc(S(=O)(=O)Cc3ccc(F)cc3)ncc2Cl)c1 do in these assays?
miR-21 reporter: 12µM*; PTHR1 agonist: inactive; GLS inhibitor: 1%

Results for CC[C@H](C)[C@H](NC(=O)[C@H](CO)NC(=O)[C@H](CC(N)=O)NC(=O)[C@H](CC(C)C)NC(=O)[C@H](Cc1ccc(O)cc1)NC(=O)[C@H](CCCCN)NC(=O)[C@H](CCCCN)NC(=O)[C@@H](NC(=O)[C@H](C)NC(=O)[C@H](CCSC)NC(=O)[C@H](CCC(N)=O)NC(=O)[C@H](CCCCN)NC(=O)[C@H](CCCNC(=N)N)NC(=O)[C@H](CC(C)C)NC(=O)[C@H](CCCNC(=N)N)NC(=O)[C@@H](NC(=O)[C@H](Cc1ccc(O)cc1)NC(=O)[C@H](CC(N)=O)NC(=O)[C@H](CC(=O)O)NC(=O)[C@@H](NC(=O)[C@H](Cc1ccccc1)NC(=O)[C@@H](NC(=O)[C@H](C)NC(=O)[C@H](CC(=O)O)NC(=O)[C@H](CO)NC(=O)[C@@H](N)Cc1c[nH]cn1)C(C)C)[C@@H](C)O)[C@@H](C)O)C(C)C)C(=O)N[C@@H](CC(C)C)C(=O)N[C@@H](CC(N)=O)C(=O)O ?
GLS inhibitor: 13%

How did O=[N+]([O-])c1ccc(Nc2ccccc2)c2nonc12 do in these assays?
miR-21 reporter: -1%; PTHR1 agonist: -74%; GLS inhibitor: 4%; USP2a inh: 2%; Eya2 phos inh: -4%; TSG101-PTAP inh: -3%

How did NNc1ccc([N+](=O)[O-])c2[nH][nH]c(=O)c12 do in these assays?
PTHR1 agonist: inactive; GLS inhibitor: 7.9µM*

Results for COc1ccc(CCN2C(=S)NC3CC2(C)Oc2ccc([N+](=O)[O-])cc23)cc1OC (configuration not stated) ?
miR-21 reporter: 19%; PTHR1 agonist: -3%[57.5 µM]; GLS inhibitor: 10µM*; USP2a inh: -2%; Eya2 phos inh: -3%; TSG101-PTAP inh: -3%

Results for COc1ccc(N2C(=O)NC3CC2(C)Oc2ccc(Cl)cc23)cc1OC (configuration not stated) ?
miR-21 reporter: 18%; PTHR1 agonist: -41%; GLS inhibitor: 0%; USP2a inh: 4%; Eya2 phos inh: 13%; TSG101-PTAP inh: 0%

Results for Cc1cc2c(cc1NS(=O)(=O)c1cccc(C#N)c1)n(C)c(=O)c(=O)n2C ?
miR-21 reporter: -5%; PTHR1 agonist: 8%; GLS inhibitor: 9%

What do the screens show for `COC(=O)C1=C(C)NC(C)=C(C(=O)O[C@H]2CCN(Cc3ccccc3)C2)C1c1cccc([N+](=O)[O-])c1` (some centres not stated)?
GLS inhibitor: 15%

Results for O=C(O)c1cccc(-c2ccc(/C=c3/sc4nc5ccccc5n4c3=O)o2)c1 ?
miR-21 reporter: -25%; PTHR1 agonist: -6%; GLS inhibitor: 13µM*; USP2a inh: inconclusive; Eya2 phos inh: inconclusive; TSG101-PTAP inh: inconclusive

Results for O=C(O)c1ccccc1-c1ccc(C=c2sc3nc4cc(Br)cnc4n3c2=O)o1 ?
PTHR1 agonist: inactive; GLS inhibitor: 7.9µM*

What do the screens show for `O=C(O)c1cc(C(=O)O)cc(-c2ccc(/C=c3/sc4nc5ccccc5n4c3=O)o2)c1`?
miR-21 reporter: 0%; PTHR1 agonist: inactive; GLS inhibitor: 0%; USP2a inh: 9%; Eya2 phos inh: 8%; TSG101-PTAP inh: 6%

Results for CC/C=C(\C(=O)N[C@H]1C(=O)N2C(C(=O)OCOC(=O)C(C)(C)C)=C(COC(N)=O)CS[C@H]12)c1csc(N)n1 ?
GLS inhibitor: 13%

Results for Cc1ccc(NC(=O)CN2C(=O)COc3ccc(S(=O)(=O)N4CCCCCC4)cc32)cc1Cl ?
miR-21 reporter: inconclusive; PTHR1 agonist: -10%; GLS inhibitor: 7%

How did COc1ccc(-c2onc(C)c2C)cc1S(=O)(=O)N1c2ccccc2CC1C (configuration not stated) do in these assays?
miR-21 reporter: 7%; PTHR1 agonist: -86%; GLS inhibitor: 0%

Gathered by group: the compounds so far containing fluorine (3)
Results for O=C(COC(=O)c1cc(NS(=O)(=O)c2cccs2)ccc1O)Nc1ccc(F)c(F)c1F ?
miR-21 reporter: 9%; PTHR1 agonist: -50%; GLS inhibitor: 13µM*; USP2a inh: -1%; Eya2 phos inh: 9%; TSG101-PTAP inh: -1%

Results for C[C@H]1NCc2cc(-c3ccc4c(=O)c(C(=O)O)cn(C5CC5)c4c3OC(F)F)ccc21 ?
GLS inhibitor: 13µM*

How did COc1ccc(OC)c(NC(=O)c2nc(S(=O)(=O)Cc3ccc(F)cc3)ncc2Cl)c1 do in these assays?
miR-21 reporter: 12µM*; PTHR1 agonist: inactive; GLS inhibitor: 1%
